Tests used:
[1] = molecular target: Ionotropic glutamate receptor NMDA 1/2C (Homo sapiens, UniProt Q05586+Q14957); details: 125 uM
[2] = molecular target: T1, Glutamate NMDA receptor; GRIN1/GRIN2A (Homo sapiens, UniProt Q05586+Q12879); assay: Positive allosteric modulation of GluN1/GluN2A receptor (unknown origin) expressed in CHO cells assessed as increase in glutamate-induced calcium flux at 125 uM measured at time interval of 5 mins in presence of saturating glycine by calcium dye-based fluorescence assay relative to glutamate; format: cell-based
[3] = molecular target: T1, Glutamate NMDA receptor; GRIN1/GRIN2A; assay: Deactivation of GluN1/GluN2A receptor (unknown origin) expressed in CHO cells assessed as time constant for signal decay at 1 uM preincubated followed by glutamate addition in presence of saturating glycine measured after glutamate removal by electrophysiology method; format: cell-based
[4] = molecular target: Ionotropic glutamate receptor NMDA 1/2D (Homo sapiens) (UniProt Q05586+O15399); details: 125 uM

Chains of the proteins cited; added tags and fusions are not shown. Lines headed by an entry give the natural chain unless they say otherwise; changes in a name come on top.
UniProt Q14957: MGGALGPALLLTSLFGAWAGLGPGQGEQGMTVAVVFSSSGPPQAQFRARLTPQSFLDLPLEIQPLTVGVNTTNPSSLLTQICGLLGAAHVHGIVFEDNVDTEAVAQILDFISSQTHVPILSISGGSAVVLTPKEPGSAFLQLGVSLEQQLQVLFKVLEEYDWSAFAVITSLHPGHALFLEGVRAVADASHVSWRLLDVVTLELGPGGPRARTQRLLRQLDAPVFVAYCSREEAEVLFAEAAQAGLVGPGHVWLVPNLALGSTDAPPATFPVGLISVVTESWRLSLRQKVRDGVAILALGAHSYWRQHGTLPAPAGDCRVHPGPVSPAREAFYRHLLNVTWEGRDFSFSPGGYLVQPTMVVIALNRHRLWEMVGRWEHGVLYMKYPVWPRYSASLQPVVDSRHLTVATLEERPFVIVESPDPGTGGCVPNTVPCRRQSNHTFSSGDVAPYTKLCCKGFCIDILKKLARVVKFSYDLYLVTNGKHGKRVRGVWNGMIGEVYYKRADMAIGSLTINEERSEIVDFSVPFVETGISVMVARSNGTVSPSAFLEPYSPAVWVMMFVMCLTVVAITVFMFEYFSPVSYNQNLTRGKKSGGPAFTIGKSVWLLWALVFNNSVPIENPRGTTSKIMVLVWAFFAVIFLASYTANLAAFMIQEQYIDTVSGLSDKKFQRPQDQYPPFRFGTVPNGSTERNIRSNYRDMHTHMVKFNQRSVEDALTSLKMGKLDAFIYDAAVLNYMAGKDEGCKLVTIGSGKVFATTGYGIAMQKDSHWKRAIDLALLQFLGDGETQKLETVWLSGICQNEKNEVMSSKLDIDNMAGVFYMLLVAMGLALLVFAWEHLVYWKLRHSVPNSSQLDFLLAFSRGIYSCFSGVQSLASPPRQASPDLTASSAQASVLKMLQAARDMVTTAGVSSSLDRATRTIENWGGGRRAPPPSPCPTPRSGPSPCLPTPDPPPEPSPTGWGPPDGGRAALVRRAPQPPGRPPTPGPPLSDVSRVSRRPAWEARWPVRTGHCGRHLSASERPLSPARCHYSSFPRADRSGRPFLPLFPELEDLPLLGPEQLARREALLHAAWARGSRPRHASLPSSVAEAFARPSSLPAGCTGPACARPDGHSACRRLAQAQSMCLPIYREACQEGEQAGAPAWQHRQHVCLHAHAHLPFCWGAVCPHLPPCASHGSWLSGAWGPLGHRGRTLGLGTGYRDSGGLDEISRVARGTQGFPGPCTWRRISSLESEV
UniProt Q12879, whole entry, looked up: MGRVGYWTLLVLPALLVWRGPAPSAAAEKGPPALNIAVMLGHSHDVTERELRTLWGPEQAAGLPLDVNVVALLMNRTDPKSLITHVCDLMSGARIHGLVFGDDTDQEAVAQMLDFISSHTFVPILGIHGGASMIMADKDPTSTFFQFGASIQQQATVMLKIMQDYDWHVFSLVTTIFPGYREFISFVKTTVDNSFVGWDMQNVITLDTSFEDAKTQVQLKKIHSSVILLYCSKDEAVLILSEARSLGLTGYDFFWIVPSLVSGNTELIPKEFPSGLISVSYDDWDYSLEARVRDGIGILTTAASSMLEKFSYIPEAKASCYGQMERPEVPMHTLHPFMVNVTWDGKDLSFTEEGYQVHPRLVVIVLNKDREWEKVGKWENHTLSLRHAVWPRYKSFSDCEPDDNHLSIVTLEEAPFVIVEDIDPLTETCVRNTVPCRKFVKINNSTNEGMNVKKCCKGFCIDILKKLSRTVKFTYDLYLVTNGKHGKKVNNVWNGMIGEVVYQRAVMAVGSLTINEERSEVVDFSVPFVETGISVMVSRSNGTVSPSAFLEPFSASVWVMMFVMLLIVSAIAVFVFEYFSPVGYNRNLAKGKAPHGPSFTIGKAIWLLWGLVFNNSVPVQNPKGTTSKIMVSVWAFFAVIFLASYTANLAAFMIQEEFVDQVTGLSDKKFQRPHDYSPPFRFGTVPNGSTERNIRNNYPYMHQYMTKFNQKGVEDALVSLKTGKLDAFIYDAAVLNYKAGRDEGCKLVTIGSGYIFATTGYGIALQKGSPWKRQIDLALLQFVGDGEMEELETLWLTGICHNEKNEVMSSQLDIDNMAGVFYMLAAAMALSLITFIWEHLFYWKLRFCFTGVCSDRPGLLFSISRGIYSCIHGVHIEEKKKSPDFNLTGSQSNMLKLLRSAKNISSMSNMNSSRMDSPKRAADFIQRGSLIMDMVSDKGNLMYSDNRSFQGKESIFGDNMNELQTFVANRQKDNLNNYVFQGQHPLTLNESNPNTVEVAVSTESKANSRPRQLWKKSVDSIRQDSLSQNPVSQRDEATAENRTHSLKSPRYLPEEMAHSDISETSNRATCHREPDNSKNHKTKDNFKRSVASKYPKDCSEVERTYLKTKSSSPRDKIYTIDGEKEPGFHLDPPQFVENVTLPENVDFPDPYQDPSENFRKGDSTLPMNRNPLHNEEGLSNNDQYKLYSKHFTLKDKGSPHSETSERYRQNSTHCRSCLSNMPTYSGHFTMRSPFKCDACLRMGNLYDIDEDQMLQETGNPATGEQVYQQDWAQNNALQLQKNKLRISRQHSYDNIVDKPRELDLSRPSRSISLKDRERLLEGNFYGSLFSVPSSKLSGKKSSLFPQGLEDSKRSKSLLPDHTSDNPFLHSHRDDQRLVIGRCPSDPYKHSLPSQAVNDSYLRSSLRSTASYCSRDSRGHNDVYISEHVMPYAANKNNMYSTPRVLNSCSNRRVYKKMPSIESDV
UniProt O15399, whole entry, looked up: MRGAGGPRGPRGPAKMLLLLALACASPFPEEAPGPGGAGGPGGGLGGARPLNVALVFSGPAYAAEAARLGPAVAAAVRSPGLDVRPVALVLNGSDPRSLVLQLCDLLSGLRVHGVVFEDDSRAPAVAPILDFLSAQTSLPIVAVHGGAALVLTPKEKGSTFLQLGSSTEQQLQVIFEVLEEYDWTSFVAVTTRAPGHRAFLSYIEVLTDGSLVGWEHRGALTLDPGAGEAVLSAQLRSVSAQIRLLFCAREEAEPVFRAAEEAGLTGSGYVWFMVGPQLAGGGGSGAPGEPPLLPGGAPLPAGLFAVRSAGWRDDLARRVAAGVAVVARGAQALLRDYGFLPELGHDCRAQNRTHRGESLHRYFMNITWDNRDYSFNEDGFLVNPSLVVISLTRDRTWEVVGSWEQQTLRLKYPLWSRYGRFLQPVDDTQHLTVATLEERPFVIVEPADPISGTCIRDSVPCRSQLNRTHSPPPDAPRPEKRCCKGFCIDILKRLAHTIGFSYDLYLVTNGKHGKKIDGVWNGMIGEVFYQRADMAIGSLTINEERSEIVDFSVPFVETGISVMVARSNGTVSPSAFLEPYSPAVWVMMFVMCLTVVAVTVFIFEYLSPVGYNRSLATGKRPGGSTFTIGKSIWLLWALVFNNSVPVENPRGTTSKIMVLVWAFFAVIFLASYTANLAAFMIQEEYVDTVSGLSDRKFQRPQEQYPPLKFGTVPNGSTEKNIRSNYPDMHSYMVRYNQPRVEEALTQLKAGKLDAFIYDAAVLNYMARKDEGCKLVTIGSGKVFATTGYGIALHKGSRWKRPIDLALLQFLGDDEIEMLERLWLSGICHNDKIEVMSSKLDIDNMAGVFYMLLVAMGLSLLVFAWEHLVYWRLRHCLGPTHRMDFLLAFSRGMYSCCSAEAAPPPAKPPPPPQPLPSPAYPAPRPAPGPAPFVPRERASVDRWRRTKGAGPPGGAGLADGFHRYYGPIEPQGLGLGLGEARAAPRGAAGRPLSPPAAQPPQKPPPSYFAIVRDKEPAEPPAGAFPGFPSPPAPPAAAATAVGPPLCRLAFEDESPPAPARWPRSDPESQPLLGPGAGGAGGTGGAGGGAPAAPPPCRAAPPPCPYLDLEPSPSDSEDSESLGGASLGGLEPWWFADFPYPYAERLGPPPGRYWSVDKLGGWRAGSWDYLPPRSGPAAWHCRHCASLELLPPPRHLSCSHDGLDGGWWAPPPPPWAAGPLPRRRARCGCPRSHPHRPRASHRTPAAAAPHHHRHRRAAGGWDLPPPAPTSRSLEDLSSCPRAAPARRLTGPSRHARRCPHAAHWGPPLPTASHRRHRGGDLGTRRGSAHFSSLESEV

Emax [1]: 243%
Emax [2]: 136%
TIME [3]: 0.00088 h
Emax [4]: 140%
SMILES: N#C[C@@H]1C[C@H]1c1c(Cl)ccc2nc(Cn3nc(C(F)(F)F)cc3Cl)cc(=O)n12

— ChEMBL document CHEMBL3870360, “GluN2A-Selective Pyridopyrimidinone Series of NMDAR Positive Allosteric Modulators with an Improved in Vivo Profile” (ACS Med Chem Lett, 2017)
